# Source: ChEMBL document CHEMBL1641598, “Preparation, in vitro screening and molecular modelling of symmetrical 4-tert-butylpyridinium cholinesterase inhibitors--analogues of SAD-128” (2011)
# Amino acid sequences for entries named in this document (tags omitted). Residues count along the entry.
# UniProt P06276, 29-602 limits assumed: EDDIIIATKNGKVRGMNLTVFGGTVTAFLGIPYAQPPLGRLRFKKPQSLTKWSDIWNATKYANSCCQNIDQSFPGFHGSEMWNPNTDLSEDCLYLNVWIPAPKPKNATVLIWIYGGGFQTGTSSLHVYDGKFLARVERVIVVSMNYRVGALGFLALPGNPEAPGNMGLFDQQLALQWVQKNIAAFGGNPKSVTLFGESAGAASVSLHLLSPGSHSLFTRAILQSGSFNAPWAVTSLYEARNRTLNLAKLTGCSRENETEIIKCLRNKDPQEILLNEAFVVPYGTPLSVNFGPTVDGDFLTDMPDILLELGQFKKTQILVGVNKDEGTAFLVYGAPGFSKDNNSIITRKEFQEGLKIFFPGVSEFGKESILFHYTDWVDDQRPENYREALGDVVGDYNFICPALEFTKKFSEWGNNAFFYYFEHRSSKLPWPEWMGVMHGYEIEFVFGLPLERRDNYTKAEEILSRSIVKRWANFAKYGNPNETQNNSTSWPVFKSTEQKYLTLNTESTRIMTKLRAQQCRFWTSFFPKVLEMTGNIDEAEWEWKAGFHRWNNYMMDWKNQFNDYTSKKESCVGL
# UniProt P06276, whole entry, looked up: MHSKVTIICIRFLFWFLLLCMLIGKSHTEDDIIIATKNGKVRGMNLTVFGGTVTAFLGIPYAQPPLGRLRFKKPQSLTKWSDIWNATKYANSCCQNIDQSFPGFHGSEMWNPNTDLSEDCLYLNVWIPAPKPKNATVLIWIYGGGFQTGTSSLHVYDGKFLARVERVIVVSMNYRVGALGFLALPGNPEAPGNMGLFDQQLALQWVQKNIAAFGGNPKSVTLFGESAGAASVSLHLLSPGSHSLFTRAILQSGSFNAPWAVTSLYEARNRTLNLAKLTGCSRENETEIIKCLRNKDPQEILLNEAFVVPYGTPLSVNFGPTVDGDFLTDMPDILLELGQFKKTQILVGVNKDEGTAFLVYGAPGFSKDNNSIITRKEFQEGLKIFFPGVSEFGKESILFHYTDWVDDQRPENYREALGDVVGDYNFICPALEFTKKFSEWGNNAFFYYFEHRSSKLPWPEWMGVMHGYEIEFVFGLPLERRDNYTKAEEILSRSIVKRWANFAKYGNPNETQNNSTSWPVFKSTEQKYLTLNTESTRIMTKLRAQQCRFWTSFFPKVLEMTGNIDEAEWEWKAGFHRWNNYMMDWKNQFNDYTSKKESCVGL
# UniProt P22303, 32-614 limits assumed: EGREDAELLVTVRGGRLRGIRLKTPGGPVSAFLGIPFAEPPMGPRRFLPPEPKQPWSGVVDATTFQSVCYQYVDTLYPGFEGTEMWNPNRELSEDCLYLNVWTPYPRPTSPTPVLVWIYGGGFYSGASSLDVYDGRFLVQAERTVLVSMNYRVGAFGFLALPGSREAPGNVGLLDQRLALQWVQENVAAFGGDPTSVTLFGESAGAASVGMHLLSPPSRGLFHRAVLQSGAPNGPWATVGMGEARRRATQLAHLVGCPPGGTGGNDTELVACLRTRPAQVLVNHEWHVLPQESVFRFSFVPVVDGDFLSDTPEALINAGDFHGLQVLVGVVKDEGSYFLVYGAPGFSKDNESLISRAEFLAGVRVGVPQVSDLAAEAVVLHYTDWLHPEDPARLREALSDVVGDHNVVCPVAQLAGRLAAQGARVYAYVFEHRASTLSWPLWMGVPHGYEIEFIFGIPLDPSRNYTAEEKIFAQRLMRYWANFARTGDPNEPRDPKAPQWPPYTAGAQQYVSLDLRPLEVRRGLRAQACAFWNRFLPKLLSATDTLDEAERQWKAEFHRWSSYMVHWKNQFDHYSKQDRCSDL
# Key:
# Cholinesterase [1] = target: Cholinesterase (Homo sapiens, UniProt P06276); experiment: Inhibition of human recombinant BChE
# Acetylcholinesterase [2] = target: T1, Acetylcholinesterase (Homo sapiens, UniProt P22303); experiment: Inhibition of human recombinant AChE
# Cholinesterase [3] = target: Cholinesterase (UniProt P06276+P22303); experiment: Inhibition of human recombinant AChE assessed as dissociation constant for enzyme-inhibitor-substrate complex by Lineweaver-Burk plot
# [4] = Inhibition of mAChR
# [5] = Inhibition of nAChR
# Acetylcholinesterase [6] = target: T1, Acetylcholinesterase; experiment: Inhibition of human recombinant AChE assessed as dissociation constant for enzyme-inhibitor complex by Lineweaver-Burk plot
Structure (SMILES),IC50 (Cholinesterase [1]) [µM],IC50 (Acetylcholinesterase [2]) [µM],further results
CCN(CC)C(C)CN1c2ccccc2Sc2ccccc21 (stereo unspecified),1.6,–,–
CC(C)(C)c1cc[n+](C/C=C\C[n+]2ccc(C(C)(C)C)cc2)cc1,4.4,2,–
CC(C)(C)c1cc[n+](C/C=C/C[n+]2ccc(C(C)(C)C)cc2)cc1,19,3.4,–
CC(C)(C)c1cc[n+](CCCCCCCC[n+]2ccc(C(C)(C)C)cc2)cc1,0.016,–,Ki (Cholinesterase [3]): 0.2 µM; IC50 [4]: 37 µM; IC50 [5]: 30 µM
CC(C)(C)c1cc[n+](CCCCC[n+]2ccc(C(C)(C)C)cc2)cc1,5.1,24,–
CC(C)(C)c1cc[n+](/C=C2\C=CC3=CC/C(=C\[n+]4ccc(C(C)(C)C)cc4)C=C3C2)cc1,0.12,0.024,Ki (Acetylcholinesterase [6]): 0.1 µM
CC(C)(C)c1cc[n+](CCCC[n+]2ccc(C(C)(C)C)cc2)cc1,5.5,3.7,–
CC(C)(C)c1cc[n+](CCCCCCCCCCC[n+]2ccc(C(C)(C)C)cc2)cc1,0.11,0.026,–
CC(C)(C)c1cc[n+](CCOCC[n+]2ccc(C(C)(C)C)cc2)cc1,–,19,–
CC(C)(C)c1cc[n+](Cc2ccc(C[n+]3ccc(C(C)(C)C)cc3)cc2)cc1,1.3,0.3,–
CC(C)(C)c1cc[n+](Cc2ccccc2C[n+]2ccc(C(C)(C)C)cc2)cc1,2.4,10,–
CC(C)(C)c1cc[n+](CCCCCCC[n+]2ccc(C(C)(C)C)cc2)cc1,0.7,0.016,–
CC(C)(C)c1cc[n+](CC[n+]2ccc(C(C)(C)C)cc2)cc1,20,17,–
CC(C)(C)c1cc[n+](CCCCCCCCCC[n+]2ccc(C(C)(C)C)cc2)cc1,0.06,0.012,–
CC(C)(C)c1cc[n+](Cc2cccc(C[n+]3ccc(C(C)(C)C)cc3)c2)cc1,1.9,0.7,–
CC(C)(C)c1cc[n+](CCCCCCCCC[n+]2ccc(C(C)(C)C)cc2)cc1,0.15,0.037,–
CC(C)(C)c1cc[n+](CCCCCCCCCCCC[n+]2ccc(C(C)(C)C)cc2)cc1,0.019,0.007,–
CC(C)(C)c1cc[n+](CCC[n+]2ccc(C(C)(C)C)cc2)cc1,53,14,–
CC(C)(C)c1cc[n+](C[n+]2ccc(C(C)(C)C)cc2)cc1,34,20,–
CC(C)(C)c1cc[n+](CCCCCC[n+]2ccc(C(C)(C)C)cc2)cc1,0.6,0.032,–
